## Antibody variant affinities, Ab-14 heavy chain, assay 1

Reference: Engelhart et al. 2022, doi:10.1038/s41597-022-01779-4. File: FLAb, binding data.

All variants were tested on one target, the spike HR2 peptide PDVDLGDISGINAS (SARS-CoV-2).

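The library (AAYL49) carries one to three amino acid substitutions per variant, with no insertions or deletions. AlphaSeq pools MATa yeast showing the antibodies with MATalpha yeast showing the peptide. The frequency of each diploid, read from paired DNA barcodes, reflects how well the two displayed proteins bind. The ratio of observed to expected reads was calibrated, replicate by replicate, on BCL2-family standards whose Kd was known from biolayer interferometry. The assay was run in three technical replicates.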

Parent: Ab-14, a human scFv built as VH, a (GGGGS)3 linker, VL. Only the CDRs of the heavy chain vary.
VH: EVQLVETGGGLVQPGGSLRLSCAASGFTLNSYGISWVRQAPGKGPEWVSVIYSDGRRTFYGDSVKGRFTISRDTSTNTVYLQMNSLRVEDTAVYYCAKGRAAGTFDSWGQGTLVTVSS
VL: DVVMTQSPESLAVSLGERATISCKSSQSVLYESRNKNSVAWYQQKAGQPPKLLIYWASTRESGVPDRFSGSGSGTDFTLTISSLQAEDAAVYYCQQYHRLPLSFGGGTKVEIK

Substitutions are numbered in sequence along the VH above, starting at 1 (not Kabat). Each Kd is an estimate from the mating assay, the geometric mean of the replicates in which the pair was seen; lower is stronger. "no signal" marks a missing value. The strain was present, yet no cells mated with the target were sequenced in any replicate, which points to weak or no binding.

changes | apparent Kd | seen in
I51F+F59H+Y60V | no signal | 0 of 3
Y60T+G61A+K65D | 520 nM | 3 of 3
F27W+Y60F+K65D | no signal | 0 of 3
Y32N+I51L+D106Q | no signal | 0 of 3
F59G+A101M+T104W | 110 nM | 3 of 3
I34P+R57V+Y60H | no signal | 0 of 3
S63K+T104F | 7.8 nM | 3 of 3
V50A+R56M+G99A | 48 µM | 2 of 3
G26P+G33F+K65V | 70 µM | 1 of 3
N30A+D62N+G99S | 53 nM | 3 of 3
I34V+D54E+V64I | 6.1 µM | 3 of 3
N30T+T58I+G61H | no signal | 0 of 3
T58N+A101P | no signal | 0 of 3
D54Y+F59C | no signal | 0 of 3
Y32W+G33I+D62S | no signal | 0 of 3
Y32C+G33P | 25 µM | 1 of 3
S31L+I51S+S63I | 6.6 µM | 2 of 3
I51D+S53H+G55S | no signal | 0 of 3
Y52V+R57A+D62E | no signal | 0 of 3
Y60D+S107G | no signal | 0 of 3
S63D+G99R+F105S | 19 nM | 3 of 3
N30M+R57C+A101W | no signal | 0 of 3
G55I+F59R+G61I | no signal | 0 of 3
G26Q+T58R+A102E | no signal | 0 of 3
N30T+S31M+S107R | no signal | 0 of 3
S63T+R100H+S107E | 31 nM | 3 of 3
Y32V+V64A+A102V | no signal | 0 of 3
I34M+F59E+T104F | 3.0 µM | 3 of 3
F27Y+Y52L+R56W | no signal | 0 of 3
T28S+F59R+K65T | 32 nM | 3 of 3
G26F+N30G+S107Q | no signal | 0 of 3
T58M+K65G+S107G | 17 µM | 1 of 3
G33C+F105Y+D106C | no signal | 0 of 3
I34M+Y52D+G103A | 61 µM | 2 of 3
F27P+G33W+Y60L | no signal | 0 of 3
D54G+R56L+G103N | no signal | 0 of 3
L29T+G33E+D62Q | no signal | 0 of 3
S31I+A101Q+F105M | 16 µM | 1 of 3
Y52H+G55C+S107Q | no signal | 0 of 3
D54S+G55E+K65L | no signal | 0 of 3
G26L+F105R+D106F | 230 µM | 1 of 3
G55A+R57S+F59E | 15 µM | 2 of 3
Y32W+S53F+D106E | no signal | 0 of 3
L29V+Y32S+R57F | no signal | 0 of 3
S35L+S63P+S107R | 9.3 µM | 1 of 3
G55P+T58H | no signal | 0 of 3
F27H+D54C+R57F | no signal | 0 of 3
Y52K+D54Y+A101K | no signal | 0 of 3
I51E+Y60E+K65S | 20 µM | 2 of 3
F59N+G61E+G103S | 5.1 µM | 3 of 3
G55P+G99N+F105T | 34 µM | 3 of 3
G26L+G33C+G103N | no signal | 0 of 3
G33Y+S63F | 100 µM | 1 of 3
G26C+S53H+K65Y | no signal | 0 of 3
N30T+I34M+D62L | no signal | 0 of 3
V50P+F59G+A102N | 56 µM | 1 of 3
S35P+F59P+A102R | no signal | 0 of 3
V50E+T58C+D62L | 19 µM | 1 of 3
T28S+F59C+F105C | no signal | 0 of 3
I51W+S107F | no signal | 0 of 3
I34R+D54Y+G103H | no signal | 0 of 3
G33N+I34W+R100M | no signal | 0 of 3
G26S+R57N+G99V | 24 µM | 1 of 3

Again, the first 8 entries without any signal:

{"changes": "I51F+F59H+Y60V", "apparent Kd": "no signal", "seen in": "0 of 3"}
{"changes": "F27W+Y60F+K65D", "apparent Kd": "no signal", "seen in": "0 of 3"}
{"changes": "Y32N+I51L+D106Q", "apparent Kd": "no signal", "seen in": "0 of 3"}
{"changes": "I34P+R57V+Y60H", "apparent Kd": "no signal", "seen in": "0 of 3"}
{"changes": "N30T+T58I+G61H", "apparent Kd": "no signal", "seen in": "0 of 3"}
{"changes": "T58N+A101P", "apparent Kd": "no signal", "seen in": "0 of 3"}
{"changes": "D54Y+F59C", "apparent Kd": "no signal", "seen in": "0 of 3"}
{"changes": "Y32W+G33I+D62S", "apparent Kd": "no signal", "seen in": "0 of 3"}

Three control strains display no target. For library AAYL49, 15% of the pairings with them gave a signal, with a median of 11 µM and one signal in twenty below 680 nM, so weak values seen in few replicates may be background.